Consider one sequence from ChEMBL document CHEMBL1151445, “Molecular epidemiology and mechanisms of carbapenem resistance in Pseudomonas aeruginosa isolates from Spanish hospitals” (2007).

The assay has as its system Escherichia coli. Particulars: XL1-Blue.

Broadly, the MIC is the least concentration at which growth counts as inhibited. A higher MIC goes with weaker potency. GENTAMICIN showed an MIC of 0.5 µg/mL.
